The conditions of data set [1]: in vivo. As for the experimental part:
Twenty-four healthy non-smoking male volunteers were enrolled in the present study. The study was designed as a one-centre, open-labelled, randomized, balanced, 4-way cross-over phase I study. […] Between the doses there was a washout period of 72 hours. In order to standardize the buccal mucosa before administration of the orodispersible tablet, the subjects were asked to avoid foods, chewing gun etc. Subjects were allowed to brush their teeth in the morning before dosing, but without toothpaste.
3.2 (Pharsight Corporation, US). […] Values below LOQ not followed by values above the LOQ are excluded from the NCA analysis, and set to zero in the descriptive statistics on concentrations.

The conditions of data set [2]: in vivo, cited from earlier work.
The conditions of data set [3]: in vivo; cited from earlier work.

Where two headings read alike, the source gives them in different places.

Broadly, the bioavailability is dose-corrected exposure relative to a reference, in per cent. Low values mean little systemic uptake, high ones much systemic uptake. With “1-desamino-8-D-arginine vasopressin [desmopressin]”, in data set [1], the bioavailability is on record as 0.30% and the “bioavailability, 95% confidence interval” value was 0.23-0.38%. For the same substance, in data set [1] (iv), the mean clearance was determined as 8.5 dm^3/hr and the “mean volume of distribution at steady state (Vss)” value was 29.7 dm^3. In data set [2] (sc), the “% Bioavailability” value is given as approximately 90%. Moreover, the “% Bioavailability” value in data set [2] is 3-5%. Also, the absorption entry in data set [3] was “not significantly absorbed”.

The values above are taken from patent publication EP2322194A2 (Reprise Biopharmaceutics, LLC, priority 2003, dated 2005).
